{
  "source": "patent US20250332139A1",
  "about": "“PS[…] AND THEIR USE FOR TREATING […] AND NE[…] DISORDERS” (Transcend Therapeutics, Inc., priority 2021, published 2025)",
  "tested_on": "168 GPCRs",
  "experiment": "β-arrestin GPCR screen (PathHunter/GPCRmax), agonist mode",
  "format": "cell-based",
  "conditions": "1 and 10 μM, threshold >30% activity",
  "data": [
    {"smiles": "CNC(C)C(=O)c1ccc2c(c1)OCO2", "note": "(centres unmarked) [methylone, 3,4-methylenedioxy-N-methylcathinone]", "values": [
      {"measurement": "agonist activity at 168 GPCRs", "result": "did not meet criteria for agonist or antagonist activity"},
      {"measurement": "agonist activity at 168 GPCRs", "setting": "listed as Methylone", "result": "no significant agonist activity detected"}
    ]}
  ]
}
